# scFv variants of Ab-14 (heavy chain) against a SARS-CoV-2 spike peptide

Reference: Engelhart et al. 2022, doi:10.1038/s41597-022-01779-4. File: FLAb, binding data.

Antigen: PDVDLGDISGINAS, a 14-residue peptide of the SARS-CoV-2 spike HR2 region.

Parent scFv Ab-14: VH joined to VL by a 15-residue (Gly4Ser)3 linker. Changes lie in the heavy chain CDRs alone.
VH: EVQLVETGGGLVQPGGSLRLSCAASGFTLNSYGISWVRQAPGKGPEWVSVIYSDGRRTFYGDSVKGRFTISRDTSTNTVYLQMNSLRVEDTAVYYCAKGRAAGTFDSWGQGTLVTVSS
VL: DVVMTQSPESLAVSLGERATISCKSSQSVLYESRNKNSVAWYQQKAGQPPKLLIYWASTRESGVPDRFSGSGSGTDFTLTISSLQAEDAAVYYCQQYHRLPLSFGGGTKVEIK

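Library AAYL49 holds single substitutions and randomly drawn double and triple substitutions in the CDRs. In AlphaSeq, yeast of one mating type display the scFv and yeast of the other type display the target. Pairs that bind mate more often; barcode pairs of the diploids are counted by sequencing. Read counts were normalised to the haploid input and turned into Kd by a linear fit to BCL2-family pairs of known affinity, for each replicate. Mating was done three times.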

The parent's heavy chain CDRs are GFTLNSYGIS, VIYSDGRRTFYGDSVK, GRAAGTFDS; each variant's own CDRs replace them letter for letter.
Scale: log10 of Kd in nM, estimated from mating counts; low values are strong binders.
Replicates are averaged; those with no signal do not enter the mean.
Where no diploid with the target was found in that replicate, the entry reads "ND": below detection, most likely a poor binder, though not proof of it.
Background: pairings of library AAYL49 with three empty control strains gave a value in 15% of cases (median 4.06, 5th percentile 2.83). Values in that range, when seen in few replicates, are hard to tell from nonspecific mating. Also given: how often the same scFv was detected with the empty control strains, with their mean in brackets.
In this assay the parent's reference entry averaged 0.65; its copy inside this library read 4.11 (one replicate of three).

CDR-H1,CDR-H2,CDR-H3,"log10 Kd, replicates","log10 Kd (nM), mean",control signals
GFGLNSYGIS,VIYSDGRRTFYGDSVK,GRAAMTFDR,ND / ND / ND,ND,2/9 (2.65)
GFDLNSYGIS,VIYSDGRRYFYGDKVK,GRAAGTFDS,1.19 / 1.16 / 1.69,1.35,0/9
GFTLNSYGIS,VIYSDGRRTFYGDKVK,GRAAGTYSS,2.58 / 3.11 / 3.03,2.91,2/9 (4.30)
GFPLNSYGIS,VIYSDGVFTFYGDSVK,GRAAGTFDS,ND / ND / ND,ND,0/9
GFTLNSYGIS,VIYSDGARTFYGDSVK,GTAAGTFDE,0.76 / 1.01 / 0.85,0.88,5/9 (4.42)
GFTLCSYGIS,VIYSDGRRTFYGNIVK,GRAAGTFDS,ND / ND / ND,ND,0/9
GDTVNSYGIS,VIYSDGRRTFYEDSVK,GRAAGTFDS,ND / ND / 3.48,3.48,2/9 (3.84)
GFTLNSDGIS,VIYSDGRRTFYGDSVK,GRAAGTSMS,ND / ND / ND,ND,1/9 (3.93)
GFTLVSYPIS,VIYSDFRRTFYGDSVK,GRAAGTFDS,ND / ND / ND,ND,0/9
GFTLNSYGIS,VIYSDGRRTFYGDSVK,GRAAVTFCS,ND / ND / ND,ND,0/9
GFTLNSYGIS,VIYSGGRRTFYADSVK,GRAAGTADS,ND / ND / ND,ND,1/9 (2.96)
GFGLNSYGTS,KIYSDGRRTFYGDSVK,GRAAGTFDS,4.72 / ND / ND,4.72,1/9 (3.43)
GFTLNSYLGS,VIYSDGRRTFYGDSVR,GRAAGTFDS,ND / ND / ND,ND,1/9 (4.91)
GFTLNSYGIS,VIHSDGRRTFYGDSVK,GRAAGRFDS,ND / ND / ND,ND,1/9 (4.49)
GFTLNSYGIS,VIYSMGRRTFYGDGVK,GRAAFTFDS,3.61 / 5.13 / ND,4.37,5/9 (3.97)
GFTLNSYKIS,VIYSDGRRTFYGHCVK,GRAAGTFDS,ND / ND / ND,ND,1/9 (4.06)
GFTLVSYGIS,KIYSDGRRTFYGDLVK,GRAAGTFDS,6.67 / 5.65 / 4.57,5.63,7/9 (5.09)
GFTLNSYGIS,VIYSDGRRWFYRDSVK,GEAAGTFDS,ND / ND / 4.63,4.63,2/9 (4.37)
GFTLNSFGIS,VIYSDGRRGFYGDSVK,GRAATTFDS,ND / 5.28 / 5.56,5.42,4/9 (4.52)
GFTLNSDGIS,VIYSDGRRTYYGDSVK,GRAAGTMDS,4.37 / 5.17 / ND,4.77,2/9 (4.39)
GFTVNSYGIS,FIYSDGRRTFYGDSVK,GRARGTFDS,ND / ND / ND,ND,4/9 (4.22)
GFTLNSYYIS,VIYSDGRNSFYGDSVK,GRAAGTFDS,ND / ND / ND,ND,2/9 (3.39)
GFTLNSYGIS,CIYSDGRRTFYGDSVK,GIAAGGFDS,ND / ND / ND,ND,0/9
GFQLNSYGIS,VIYCDGRRTFYGDSVK,GRAAGTFDP,ND / ND / ND,ND,0/9
GFTLNSYGIS,VIYIDARRTFYKDSVK,GRAAGTFDS,ND / ND / ND,ND,0/9
GFTLQSYGIS,TIYSDQRRTFYGDSVK,GRAAGTFDS,ND / 3.84 / 3.90,3.87,3/9 (3.54)
GFTLNSYGIS,VIMSDGRRTFYGDSVK,GRAAGTFTS,ND / 3.88 / ND,3.88,2/9 (3.97)
GFDLNSYGIS,VIYSDGRRTFYGDSVK,QRAAGDFDS,ND / ND / ND,ND,2/9 (3.64)
GFTLNSYGIS,VIYSDGRMTFYGDSVK,GRFAGTFDS,ND / ND / ND,ND,1/9 (4.36)
GFTVNSYGIS,VIYSDGRRSFYGDSVK,GRAAGSFDS,4.29 / 2.40 / 4.71,3.80,2/9 (3.19)
GFTGNSYVIS,VIYSDGRRTFYGDSVK,GRAAGTFDF,ND / ND / ND,ND,1/9 (4.55)
GFTLNSYGIS,VIYSDGRRTFYGDSVK,GRAAQTFDS,ND / ND / ND,ND,0/9
GFTLYSYGIS,VIYSWGRRTFYGDSVK,GRAAGTFDS,4.18 / ND / 6.15,5.16,3/9 (3.99)
LFTLNSYGIS,VIYSDGRRTFYGDSVK,GRDAGTDDS,ND / ND / ND,ND,0/9
GFTENSYGIT,VIYSDGRRTFYGDSVK,GRQAGTFDS,3.76 / ND / ND,3.76,0/9
GFTLNSYGIS,QIYSDGRRTFYGDSVK,GGLAGTFDS,4.69 / ND / 6.25,5.47,5/9 (4.65)
GFTLNSYGIS,VIYSDGIFTFYGDSVK,GRAAMTFDS,ND / 4.77 / ND,4.77,0/9
GFTLNSYGIS,AIYSDGRRTFYGDSVK,GRAAGTFDS,ND / 3.20 / 4.44,3.82,0/9
GVTLNSYGIS,VIYSDGRRTFYGDSVK,TRAALTFDS,3.62 / 4.52 / ND,4.07,1/9 (4.70)
GFTLNSYGIS,VIYSDGIRTFYGDWVK,GRAAGKFDS,ND / ND / 3.61,3.61,0/9

Picked from the list: the 2 lowest averages where every replicate gave a value.

{"CDR-H1": "GFTLNSYGIS", "CDR-H2": "VIYSDGARTFYGDSVK", "CDR-H3": "GTAAGTFDE", "log10 Kd, replicates": "0.76 / 1.01 / 0.85", "log10 Kd (nM), mean": "0.88", "control signals": "5/9 (4.42)"}
{"CDR-H1": "GFDLNSYGIS", "CDR-H2": "VIYSDGRRYFYGDKVK", "CDR-H3": "GRAAGTFDS", "log10 Kd, replicates": "1.19 / 1.16 / 1.69", "log10 Kd (nM), mean": "1.35", "control signals": "0/9"}